The record followed here is ChEMBL document CHEMBL1128243, “Three-dimensional quantitative structure-activity relationships of sulfonamide endothelin inhibitors” (J Med Chem, 1995).

By UniProt entry, the sequences of proteins in these tests, tags left out.
UniProt P26684, whole entry: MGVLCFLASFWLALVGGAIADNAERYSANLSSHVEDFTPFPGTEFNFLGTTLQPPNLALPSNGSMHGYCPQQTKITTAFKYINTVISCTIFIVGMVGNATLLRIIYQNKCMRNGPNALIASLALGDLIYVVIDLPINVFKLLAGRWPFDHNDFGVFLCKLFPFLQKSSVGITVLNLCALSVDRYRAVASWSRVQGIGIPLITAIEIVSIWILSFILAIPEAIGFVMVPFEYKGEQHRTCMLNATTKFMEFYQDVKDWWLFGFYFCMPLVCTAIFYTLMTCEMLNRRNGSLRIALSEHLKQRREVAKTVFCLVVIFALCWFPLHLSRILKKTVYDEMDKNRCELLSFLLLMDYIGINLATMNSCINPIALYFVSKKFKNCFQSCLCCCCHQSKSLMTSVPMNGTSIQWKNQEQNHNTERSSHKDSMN

The test has as its target Endothelin-1 receptor (Rattus norvegicus, UniProt P26684). Description: Inhibition of [125I]endothelin-l binding to endothelin A receptor of rat thoracic aorta smooth muscle cells. It counts as tissue-based. Put shortly: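 Membranes from A10 rat thoracic aorta smooth muscle cells (cultured, trypsin-detached, stored at -70 °C, then thawed, homogenized and centrifuged to a membrane pellet). Samples filtered through glass fiber filters and washed, then filter-retained radioactivity counted.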

Structures are written as SMILES.

What is called IC50 is the concentration needed to halve the response being measured. Higher therefore signals weaker potency in that assay. In turn, `Cc1cc(NS(=O)(=O)c2ccc(N)cc2)no1` [SULFAMETHOXAZOLE] displayed an IC50 of 4000 nM.

For `Cc1noc(NS(=O)(=O)c2cccc3c(O)cccc23)c1C`, the IC50 came to 68 nM.
